## Yeast mating assay 1: variants of the scFv Ab-14

Binding partner: SARS-CoV-2 spike HR2 peptide, sequence PDVDLGDISGINAS.

Parent scFv Ab-14: VH joined to VL by three GGGGS repeats. Changes lie in the heavy chain CDRs alone.
VH: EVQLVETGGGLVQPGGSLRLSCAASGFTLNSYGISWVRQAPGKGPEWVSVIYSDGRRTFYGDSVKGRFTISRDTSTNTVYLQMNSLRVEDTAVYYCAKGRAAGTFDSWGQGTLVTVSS
VL: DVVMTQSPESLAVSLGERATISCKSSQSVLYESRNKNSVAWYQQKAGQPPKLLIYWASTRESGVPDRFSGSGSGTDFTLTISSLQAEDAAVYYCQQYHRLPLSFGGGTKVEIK

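The starting antibody came from a phage panning campaign against this peptide. The library (AAYL49) carries one to three amino acid substitutions per variant, with no insertions or deletions. The scFvs were displayed on barcoded MATa yeast, the peptide on MATalpha yeast. Mating (16 h, 30 °C) was followed by selection of diploids and sequencing of their barcodes. Read counts were normalised to the haploid input and turned into Kd by a linear fit to BCL2-family pairs of known affinity, for each replicate. The assay was run in three technical replicates.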

Each variant is given by its three heavy chain CDRs, as the data file delimits them; those of the parent are GFTLNSYGIS, VIYSDGRRTFYGDSVK, GRAAGTFDS.
All variants listed here change Y32 of the VH, counted from its first residue.
Affinities are written as log10 Kd with Kd in nM; a lower number is a better binder.
The mean shown is taken over the replicates in which the pair was detected.
"nd" marks a missing value. The strain was present, yet no cells mated with the target were sequenced in any replicate, which points to weak or no binding.
Parent in this assay: reference entry 0.65, copy in this library 4.11 (one replicate of three).
Background: pairings of library AAYL49 with three empty control strains gave a value in 15% of cases (median 4.06, 5th percentile 2.83). Values in that range, when seen in few replicates, are hard to tell from nonspecific mating. For each scFv, signals with the empty controls are counted beside the result.

* GFTLNSNGIS / VIYSDGRRTFRGDSVK / GWAAGTFDS: 4.62 (3 of 3 replicates; controls 4 of 9)
* GFTLNSRGIS / VRYSDGRRWFYGDSVK / GRAAGTFDS: nd (0 of 3 replicates; controls 1 of 9)
* GFVLNSSHIS / VIYSDGRRTFYGDSVK / GRAAGTFDS: nd (0 of 3 replicates; controls 1 of 9)
* GFTLCSWGIS / VIYSDGRLTFYGDSVK / GRAAGTFDS: nd (0 of 3 replicates; controls 0 of 9)
* GFTLNSSGDS / VIYSDGRRTFYGDSVK / GRAAGTFDC: 4.42 (2 of 3 replicates; controls 0 of 9)
* GFTLNSDGIN / VIYSDGDRTFYGDSVK / GRAAGTFDS: nd (0 of 3 replicates; controls 2 of 9)
* GFTLNSDGIS / VIYSDGRRTFYGDSVK / GTAAGTGDS: nd (0 of 3 replicates; controls 0 of 9)
* GKYLNSEGIS / VIYSDGRRTFYGDSVK / GRAAGTFDS: 2.84 (1 of 3 replicates; controls 1 of 9)
* GFTLNSGGIS / VIYSDGRRTFYGDSVK / GRAAGTHDS: 5.00 (1 of 3 replicates; controls 1 of 9)
* SFTLNSPGIS / VIYSDGRRTFYGDSVK / GRAAGTTDS: nd (0 of 3 replicates; controls 0 of 9)
* GFTLNSKGIS / VIYSDGRRTFYGDSVK / GRAAITFDS: 3.05 (3 of 3 replicates; controls 1 of 9)
* GYTLCSCGIS / VIYSDGRRTFYGDSVK / GRAAGTFDS: nd (0 of 3 replicates; controls 2 of 9)
* GFALNSKGNS / VIYSDGRRTFYGDSVK / GRAAGTFDS: nd (0 of 3 replicates; controls 0 of 9)
* GFTLNSEGIS / VIYSDGLRTFYGDSVK / GRAAGTFDS: 4.72 (2 of 3 replicates; controls 2 of 9)
* GFTLNSLGIS / VIYSDGRRTCYGDSVK / GRAAGTFRS: 3.01 (1 of 3 replicates; controls 3 of 9)
* GFTNNSRGIS / VDYSDGRRTFYGDSVK / GRAAGTFDS: 3.46 (1 of 3 replicates; controls 1 of 9)
* GVTLNSMNIS / VIYSDGRRTFYGDSVK / GRAAGTFDS: nd (0 of 3 replicates; controls 0 of 9)
* GFTLNSPGAS / VIYSDGRRTFYGDSVK / GAAAGTFDS: nd (0 of 3 replicates; controls 0 of 9)
* GFTLNSAGIS / VIYSEGRRTFYGDSVK / HRAAGTFDS: nd (0 of 3 replicates; controls 0 of 9)
* GFTLNSWGIS / VIYSDGRRTFYGDSKK / GRAANTFDS: nd (0 of 3 replicates; controls 3 of 9)
* GFTLNSMGIS / VIYSDGRRTFYGDSVK / GMAAGTFDD: nd (0 of 3 replicates; controls 1 of 9)
* GFTLNSEGIS / VIYSDGRRTFYGDSRK / GRAQGTFDS: 5.39 (1 of 3 replicates; controls 2 of 9)
* GFTLNSEGIS / VWYSDGRRTFDGDSVK / GRAAGTFDS: nd (0 of 3 replicates; controls 0 of 9)
* GQTLNSGGIS / VIYSDGRRSFYGDSVK / GRAAGTFDS: 4.02 (1 of 3 replicates; controls 1 of 9)
* GFTLNSLGIS / VIYSDGRRTFYGDRVK / GRAAPTFDS: nd (0 of 3 replicates; controls 1 of 9)
* GFTLNSNGIS / VIYSDGRRYFYGDSVK / GRAAWTFDS: 3.94 (1 of 3 replicates; controls 2 of 9)
* NFTENSKGIS / VIYSDGRRTFYGDSVK / GRAAGTFDS: 3.34 (1 of 3 replicates; controls 1 of 9)
* GFTLNSCGIS / VIYSDGRRTFYGDDVK / GRAIGTFDS: nd (0 of 3 replicates; controls 0 of 9)
* GFTLNSMGIS / VIYSDGRRTFYGDSVL / GRATGTFDS: 2.70 (3 of 3 replicates; controls 5 of 9)
* GFMLNSFGIS / VIYSDGRGTFYGDSVK / GRAAGTFDS: nd (0 of 3 replicates; controls 2 of 9)
* GFTLNSEIIS / VIYSDGRRTFYGDSVK / GRAAGTFDS: 4.36 (1 of 3 replicates; controls 2 of 9)
* GFTLNSTGIS / VIYSDGRFTFYGDSVK / GRAAGTFES: 4.67 (1 of 3 replicates; controls 5 of 9)
* GFTLNSHGIS / VIYSDGRRTFHADSVK / GRAAGTFDS: 4.01 (1 of 3 replicates; controls 0 of 9)
* GFTLNSHGIS / VIYSDGDRTFYLDSVK / GRAAGTFDS: 3.54 (3 of 3 replicates; controls 7 of 9)
* GFTLNSDGIS / VIYSDGRRTFYGDSCK / GRAAGVFDS: nd (0 of 3 replicates; controls 0 of 9)
* GFTLNSEGIS / VIYSDDRRTFYGDSVK / KRAAGTFDS: nd (0 of 3 replicates; controls 0 of 9)
* GDTLNSEGIS / VIYSDGRRIFYGDSVK / GRAAGTFDS: nd (0 of 3 replicates; controls 1 of 9)
* GFTLNSSGIP / VIYSDGRRTFQGDSVK / GRAAGTFDS: nd (0 of 3 replicates; controls 1 of 9)
* GFTLNSWGIS / VIYSDGRNTFYGDSVK / GRAAGTFDS: 3.53 (1 of 3 replicates; controls 0 of 9)

For reference, 6 entries of the list once more:

CDR-H1,CDR-H2,CDR-H3,"log10 Kd (nM), mean",seen in,empty controls
GFTLNSHGIS,VIYSDGDRTFYLDSVK,GRAAGTFDS,3.54,3 of 3,7 of 9
GFTLCSWGIS,VIYSDGRLTFYGDSVK,GRAAGTFDS,nd,0 of 3,0 of 9
GFTLNSEGIS,VIYSDDRRTFYGDSVK,KRAAGTFDS,nd,0 of 3,0 of 9
GFTLNSEIIS,VIYSDGRRTFYGDSVK,GRAAGTFDS,4.36,1 of 3,2 of 9
GFTLNSNGIS,VIYSDGRRTFRGDSVK,GWAAGTFDS,4.62,3 of 3,4 of 9
GFALNSKGNS,VIYSDGRRTFYGDSVK,GRAAGTFDS,nd,0 of 3,0 of 9

The measurements come from Engelhart et al. 2022 (doi:10.1038/s41597-022-01779-4) through the FLAb antibody collection.